ChEMBL document CHEMBL5579878, “Allosteric Activation of Protein Phosphatase 5 with Small Molecules” (J Med Chem, 2024)

T1: Serine/threonine-protein phosphatase 5 (Homo sapiens) (UniProt P53041)
T1 sequence (whole entry): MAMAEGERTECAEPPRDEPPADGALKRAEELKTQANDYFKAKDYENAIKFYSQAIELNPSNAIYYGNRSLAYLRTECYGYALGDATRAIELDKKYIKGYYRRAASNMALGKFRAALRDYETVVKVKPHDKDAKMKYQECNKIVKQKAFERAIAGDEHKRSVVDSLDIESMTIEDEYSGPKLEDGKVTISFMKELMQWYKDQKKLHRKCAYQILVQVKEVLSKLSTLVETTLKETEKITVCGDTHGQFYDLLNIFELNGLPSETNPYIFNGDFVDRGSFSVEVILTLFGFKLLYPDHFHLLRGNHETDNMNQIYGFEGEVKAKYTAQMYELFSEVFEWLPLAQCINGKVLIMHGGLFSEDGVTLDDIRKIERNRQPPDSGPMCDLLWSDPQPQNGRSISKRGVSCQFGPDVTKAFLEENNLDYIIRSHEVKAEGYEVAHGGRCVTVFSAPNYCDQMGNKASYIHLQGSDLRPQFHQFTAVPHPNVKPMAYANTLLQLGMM


Key:
[1] = target: T1, Serine/threonine-protein phosphatase 5 (Homo sapiens); experiment: Activation of His-tagged human PP5 extracted from Escherichia coli BL21 using pNPP as substrate assessed as fold change in maximum activation at 0.1 to 1000 uM incubated for 30 mins by spectrophotometric analysis; settings: filed as activator, dose 0.1-1000 µM
[2] = substrate: N=c1oc2cc(F)cc(F)c2cc1C(N)=S; experiment: Binding affinity to His-tagged human PP5 extracted from Escherichia coli BL21 using pNPP as substrate assessed as Vmax at 60 uM preincubated for 30 mins followed by substrate addition and measured after 10 mins; settings: filed as activator, time 40.0 min

fold change (FC) [1]	Molecule	Vmax [2] [µM/min]
4.3	N=c1oc2cc(F)cc(F)c2cc1C(N)=S	
	Serine/threonine-protein phosphatase 5 (Homo sapiens), P53041 (protein) MAMAEGERTECAEPPRDEPPADGALKRAEELKTQANDYFKAKDYENAIKFYSQAIELNPSNAIYYGNRSLAYLRTECYGYALGDATRAIELDKKYIKGYYRRAASNMALGKFRAALRDYETVVKVKPHDKDAKMKYQECNKIVKQKAFERAIAGDEHKRSVVDSLDIESMTIEDEYSGPKLEDGKVTISFMKELMQWYKDQKKLHRKCAYQILVQVKEVLSKLSTLVETTLKETEKITVCGDTHGQFYDLLNIFELNGLPSETNPYIFNGDFVDRGSFSVEVILTLFGFKLLYPDHFHLLRGNHETDNMNQIYGFEGEVKAKYTAQMYELFSEVFEWLPLAQCINGKVLIMHGGLFSEDGVTLDDIRKIERNRQPPDSGPMCDLLWSDPQPQNGRSISKRGVSCQFGPDVTKAFLEENNLDYIIRSHEVKAEGYEVAHGGRCVTVFSAPNYCDQMGNKASYIHLQGSDLRPQFHQFTAVPHPNVKPMAYANTLLQLGMM	5.59
